Measured values from article PMC9781916, “Antipsychotic- and Anxiolytic-like Properties of a Multimodal Compound JJGW08 in Rodents” (International Journal of Molecular Sciences, 2022).

Amino acid sequences for entries named in this document (tags omitted).
UniProt P34969, whole entry: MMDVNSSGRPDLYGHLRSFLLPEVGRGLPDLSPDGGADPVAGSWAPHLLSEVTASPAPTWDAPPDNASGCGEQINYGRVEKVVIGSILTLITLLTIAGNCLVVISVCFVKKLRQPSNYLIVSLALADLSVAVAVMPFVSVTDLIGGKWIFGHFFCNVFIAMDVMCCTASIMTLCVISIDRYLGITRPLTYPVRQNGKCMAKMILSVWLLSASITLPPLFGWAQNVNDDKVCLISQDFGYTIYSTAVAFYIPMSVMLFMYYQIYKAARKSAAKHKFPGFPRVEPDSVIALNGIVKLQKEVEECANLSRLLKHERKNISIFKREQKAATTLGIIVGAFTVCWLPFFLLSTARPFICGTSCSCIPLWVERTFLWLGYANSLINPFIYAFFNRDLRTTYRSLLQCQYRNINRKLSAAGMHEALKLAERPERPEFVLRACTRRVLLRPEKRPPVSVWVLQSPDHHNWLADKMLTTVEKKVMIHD

Target: human serotonin 5-HT7 receptor (Homo sapiens, UniProt P34969)
Assay: Functional assay (cAMP, TR-FRET) in CHO-K1 cells, 5-HT7 receptor

Compound: CC1CCN(CC[C@H]2CCCN2S(=O)(=O)c2cccc(O)c2)CC1 [SB-269970, reference compound]
- Agonist Mode Emax% (5-HT7, agonist mode): 0%
- Antagonist Mode Emax% (5-HT7, antagonist mode, 10 nM serotonin as reference agonist): 9%
